According to patent US9061077B2, “Methods of determining renal function using technetium-99m tricarbonyl-nitrilotriacetic acid” (Emory University, priority 2008, dated 2015):

Tests used:
[1] = rat, in vivo
[2] = rat, in vivo; remark: listed apart in the source
[3] = rat urine 10 min, plasma 2-3 min post-injection
[4] = Biodistribution in rats with renal pedicle ligation (renal failure model), Group B; details: 60 min; for Percent injected dose in bowel: small and large intestines; for Percent injected dose in blood: renal pedicle ligation Group B, n=6
[5] = Plasma clearance in healthy volunteers (single injection, two-compartment model); details: normal volunteers, individual values and mean; listed as 99mTc-NTA

## technetium-99m tricarbonyl-nitrilotriacetic acid [^99mTc(CO)3(NTA)]
[1]
  Mean total injected activity present in heart, lungs, spleen, blood and liver: < 0.8%
[2]
  Extraction fraction: 93.5%
[3]
  In vivo stability (metabolites by HPLC): only one peak in urine (FIG. 2B) and plasma (FIG. 2C)
[4]; Group B
  Percent injected dose in kidney: 0.9 ± 0.2%
[4]; Group B, listed as 99mTc-NTA
  Percent injected dose in bowel: 5.6 ± 0.9%
[4]; Group B, listed as Na2[^99mTc(CO)3(NTA)]
  Percent injected dose in bowel: 5.6%
[4]; listed as 99mTc-NTA
  Percent injected dose in blood: 19.9 ± 1.2%
[4]; listed as Na2[^99mTc(CO)3(NTA)]
  Percent injected dose in blood: 19.9%
[5]
  Clear NTA/OIH: 113% and 140% and 102% and 78% and 98% and 80%

Several values for one entry are separate records, joined by “and”; a condition that tells them apart may be missing. Equal entries are not always repeated.
